Target: PPARγ (Homo sapiens, UniProt P37231)
Assay type: cell-based

Protein sequences, listed by entry. Tags and fused reporters are not part of them. Residues count along the entry.
UniProt P37231, 29-505: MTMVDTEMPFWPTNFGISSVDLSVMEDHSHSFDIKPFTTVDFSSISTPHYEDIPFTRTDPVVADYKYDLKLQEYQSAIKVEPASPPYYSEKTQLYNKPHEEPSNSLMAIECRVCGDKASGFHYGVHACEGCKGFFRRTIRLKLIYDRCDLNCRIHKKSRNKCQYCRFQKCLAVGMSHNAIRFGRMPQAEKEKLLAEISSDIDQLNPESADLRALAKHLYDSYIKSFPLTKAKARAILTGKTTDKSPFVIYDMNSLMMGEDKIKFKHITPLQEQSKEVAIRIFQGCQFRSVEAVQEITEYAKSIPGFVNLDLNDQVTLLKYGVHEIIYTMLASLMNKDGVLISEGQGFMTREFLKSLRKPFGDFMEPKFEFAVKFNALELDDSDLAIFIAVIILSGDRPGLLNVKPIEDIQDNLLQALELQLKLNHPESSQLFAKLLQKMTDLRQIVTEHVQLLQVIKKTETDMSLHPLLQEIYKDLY

CCCCC/C=C(\C/C=C\CCCCCCCC(=O)O)[N+](=O)[O-] [12-NO2-linoleic acid, (9Z,12E)-12-nitrooctadeca-9,12-dienoic acid]
EC50 fold lower than those of 9/10-NO2-LA and 13-NO2-LA: more than 10 fold

Source: PMC9972884 (Biochemistry, 2009)
